Published antibiotic growth screens (doi:10.1038/s41589-023-01349-8)
Some of the results follow.

system: A. baumannii ATCC 17978; assay: relative growth (fraction of control); higher = less inhibition; settings: 50 µM

In order of falling relative growth:
1. COc1ccc([Si](C)(C)[C@@H]2[C@@H](CCO)O[C@]3(C(=O)N(Cc4ccc(N5C(=O)c6cccc7cccc5c67)cc4)c4ccccc43)[C@H]2C)cc1  1.41
2. CC(C)(C)OC(=O)NC(=NCCCn1cc(-c2cccc(/C=C/C(=O)NO)c2)nn1)NC(=O)OC(C)(C)C  1.33
3. COc1ccc(-c2cc(=O)c3c(O)cc(O)cc3o2)cc1  1.22
4. C#C[C@]1(O)CCC2C3CCC4=CCCCC4C3CC[C@@]21C (stereo partly drawn)  1.22
5. Cc1ccc2ncc(-c3ccc4cc(C)ccc4n3)cc2c1  1.21
6. O=C1NC(=O)[C@H](Cc2ccccc2)N1  1.19
7. O=C(O)CNC(=O)c1[nH]nc2ccccc12  1.18
8. COc1nc(C)nc(Cl)c1NC1=NCCN1  1.17
9. C=CCOC(=O)[C@H]1[C@@H]2C(=O)O[C@@H](c3ccccc3)[C@@H](c3ccccc3)N2[C@@H](c2ccc(OCCOC(=O)[C@@H]3C[C@@H]4C(=O)N[C@@H](CC(C)C)C(=O)N4[C@@H]3c3cccc(OCCO)c3)cc2)[C@]12C(=O)Nc1ccc(I)cc12  1.17
10. O=C(O)CNc1ncccc1O  1.16
11. O=c1nc[nH]c2c1ncn2[C@H]1CC[C@@H](CO)O1  1.15
12. O=C(C[C@@H]1C=C[C@@H](NS(=O)(=O)c2ccccc2)[C@@H](CO)O1)NCc1ccncn1  1.15
13. O=C(C[C@H]1CC[C@H]2[C@@H](COC[C@@H](O)CN2S(=O)(=O)c2ccc(F)cc2)O1)N[C@H]1CCN(Cc2ccccc2)C1  1.14
14. Oc1c(I)cc(I)c2cccnc12  1.14
15. CO[C@@H](CN(C)C(=O)c1ccc2c(c1)OCO2)[C@H](C)CN([C@@H](C)CO)S(=O)(=O)c1ccc(F)cc1  1.12
16. COc1cccc(NC(=O)N2C[C@H](O)COC[C@H]3O[C@@H](CC(=O)NCCCN4CCOCC4)CC[C@@H]32)c1  1.11
17. Cc1ncc(CSSCc2cnc(C)c(O)c2CO)c(CO)c1O  1.11
18. O=C(C[C@H]1C[C@H]2c3cc(NC(=O)c4ccc5c(c4)OCO5)ccc3O[C@H]2[C@H](CO)O1)NCc1cccnc1  1.11
19. Cn1cc(S(=O)(=O)N2CCN(c3ccccc3F)CC2)c(=O)n(C)c1=O  1.1
20. COCC(=O)N1C[C@@H](C)[C@H](OC)CN(C)C(=O)c2ccc(NC(=O)Nc3cccc(F)c3)cc2OC[C@@H]1C  1.09
21. NC(C(=O)O)C(O)C(=O)O (stereo not drawn) [d,l-threo-3-HYDROXYASPARTIC ACID]  1.08
22. Cn1c(=O)n2n(c1=O)[C@H](C1CC1)C=C1CN3[C@@H]([C@H](Cc4ccccc4)OC(=O)[C@@H]3Cc3ccc(N=[N+]=[N-])cc3)[C@@H]12  1.08
23. CN(C)CC(=O)N[C@@H]1CC[C@@H](CCn2cc(CN(C)C)nn2)O[C@H]1CO  1.08
24. Cc1ccc(-c2cnc(-c3ccc(Br)cc3)o2)cc1  1.07
25. C[C@H]1CN([C@@H](C)CO)S(=O)(=O)c2ccc(C#CC3(O)CCCC3)cc2O[C@H]1CN(C)C(=O)Cc1cccnc1  1.07
26. CCC(=O)O  1.07
27. O=C(C[C@H]1C[C@@H]2c3cc(NS(=O)(=O)c4ccccc4)ccc3O[C@@H]2[C@@H](CO)O1)NC1CCCCC1  1.06
28. COc1ccc(-c2oc3c(CC=C(C)C)c(O[C@@H]4O[C@H](CO)[C@@H](O)[C@H](O)[C@H]4O)cc(O)c3c(=O)c2O[C@@H]2O[C@@H](C)[C@H](O)[C@@H](O)[C@H]2O)cc1  1.06
29. O=C(Cc1ccncc1)NCC[C@@H]1CC[C@@H](NC(=O)C2CCOCC2)[C@H](CO)O1  1.05
30. O=C(C[C@H]1CC[C@H]2[C@@H](COC[C@@H](O)CN2C(=O)c2ccccc2)O1)N1CCOCC1  1.05
31. COCCOC(=O)N1C(=O)[C@@]2(c3cc(C#CC4(O)CCCCCC4)ccc31)[C@H](c1ccc(OCCO)cc1)N1[C@H](c3ccccc3)[C@H](c3ccccc3)OC(=O)[C@H]1[C@@H]2C(=O)N1CCCCCCC1  1.05
32. COc1ccccc1CN1C(=O)c2ccccc2[C@@]2(Cc3ccccc3N(CCCN(C)C)C2=O)[C@@H]1c1ccc(CO)cc1  1.04
33. CC(=O)NCCCC[C@@H]1NC(=O)[C@H]2C[C@@H](C(=O)NCCCC[N+](C)(C)C)[C@@H](c3ccc(O)cc3)N2C1=O  1.04
34. O=C(C[C@@H]1CC[C@H]2[C@@H](COC[C@@H](O)CN2Cc2ccccc2F)O1)N[C@@H]1CCN(Cc2ccccc2)C1  1.04
35. CC(CCC(=O)O)[C@H]1CCC2C3CC[C@@H]4C[C@H](O)CC[C@]4(C)C3C[C@H](O)[C@@]21C (stereo partly drawn)  1.04
36. COc1ccc([Si](C)(C)[C@H]2[C@H](CC(=O)N3Cc4ccccc4C[C@H]3CO)O[C@@]3(C(=O)N(Cc4ccc(N5CCOC5=O)cc4)c4ccccc43)[C@@H]2C)cc1  1.03
37. O=C(C[C@H]1C=C[C@@H](NC(=O)CN2CCOCC2)[C@@H](CO)O1)NC1CCC1  1.03
38. O=C(N/N=C/[C@H](O)[C@@H](O)[C@H](O)CO)c1ccccn1  1.02
39. NCCS(=O)(=O)O  1.02
40. COc1ccccc1S(=O)(=O)N[C@@H]1C=C[C@@H](CC(=O)N2CCN(C)CC2)O[C@H]1CO  1.02
41. O=c1c(O)cccc2cc(O)c(O)c(O)c12  1.01
42. COc1c2ccccc2nc2occc12  1.01
43. CC[C@@H](CO)NC(=O)c1ccc(N)cc1  1.01
44. C[C@H](CO)N1C[C@H](C)[C@@H](CN(C)S(=O)(=O)c2cccc(F)c2)Oc2ncc(C#CC3(O)CCCC3)cc2C1=O  1
45. CO[C@H]1O[C@H](COC(=O)NCCCCCC(=O)NO)[C@@H](OC(=O)c2ccccc2)[C@H](OC(=O)Nc2ccccc2-c2ccccc2)[C@@H]1OC(=O)Nc1ccccc1-c1ccccc1  1
46. O=C(C[C@@H]1CC[C@H](NC(=O)CN2CCOCC2)[C@@H](CO)O1)NCCc1ccncc1  1
47. C[C@@H]1CN([C@H](C)CO)C(=O)c2cc(C#CC3(O)CCCC3)cnc2O[C@@H]1CN(C)C(=O)Cc1ccccc1  1
48. O=C(C[C@H]1CC[C@H]2[C@@H](COC[C@H](O)CN2C(=O)c2ccncc2)O1)NCc1ccc(-c2ccccc2)cc1  0.997
49. O=C(C[C@@H]1C=C[C@H](NC(=O)c2cccc(F)c2)[C@@H](CO)O1)NCCN1CCCC1  0.996
50. CN(C)c1ccc([C@@H](CN)N2CCc3ccccc3C2)cc1  0.981
51. COc1ccc(NC(=O)N(C)C[C@@H]2Oc3cc(C#CCN(C)C)ccc3S(=O)(=O)N([C@@H](C)CO)C[C@@H]2C)cc1  0.978
52. CCOC(=O)c1nonc1N  0.978
53. COCCOC(=O)N1C(=O)[C@@]2(c3cc(C#CCNC(N)=O)ccc31)[C@H](c1ccc(O)cc1)N1[C@H](c3ccccc3)[C@H](c3ccccc3)OC(=O)[C@H]1[C@@H]2C(=O)N1CCc2cc(OC)c(OC)cc2C1  0.974
54. O=C(C[C@@H]1C=C[C@H](NC(=O)CN2CCOCC2)[C@@H](CO)O1)NC1CCC1  0.972
55. Cc1ccc(S(=O)(=O)NC(=O)NN2CC3CCCC3C2)cc1 (stereo not drawn)  0.969
56. O=c1c(O)c(-c2cc(O)c(O)c(O)c2)oc2cc(O)cc(O)c12  0.967
57. COC(=O)[C@H]1C2C(=O)N(C3CC3)C[C@]23C=C[C@H]1O3 (stereo partly drawn)  0.958
58. CCn1cc(C(=O)O)c(=O)c2cnc(N3CCNCC3)nc21  0.953
59. C[N+]1(C)C2CC[C@H]1C[C@@H](OC(=O)C(O)c1ccccc1)C2.[Br-] (stereo partly drawn)  0.951
60. COc1ccc2cc(CCC(C)=O)ccc2c1  0.946
61. O=C(CCCN1CC=C(n2c(=O)[nH]c3ccccc32)CC1)c1ccc(F)cc1  0.946
62. COC(=O)[C@@H]1CC2=CC(=O)CC[C@]2(C)[C@@]23OC2C[C@@]2(C)C(CCC24CCC(=O)O4)[C@H]13 (stereo partly drawn)  0.946
63. CCCNC(=O)N[C@H]1C=C[C@@H](CC(=O)N2CCN(C)CC2)O[C@H]1CO  0.942
64. COCC#Cc1ccc2c(c1)O[C@@H](CN(C)S(=O)(=O)c1ccc(F)cc1)[C@@H](C)CN([C@@H](C)CO)S2(=O)=O  0.937
65. CC(=O)Oc1cccc2c1C(=O)c1c(OC(C)=O)cc(C(=O)O)cc1C2=O  0.93
66. COc1ccccc1CNC(=O)C[C@@H]1C[C@H]2c3cc(NS(=O)(=O)c4ccc(F)cc4)ccc3O[C@H]2[C@H](CO)O1  0.919
67. C=C(C)[C@@H]1CC[C@]2(C)CC[C@]3(C)[C@@H](CCC4[C@@]5(C)CC[C@H](OC(C)=O)C(C)(C)C5CC[C@]43C)C12 (stereo partly drawn)  0.909
68. CCn1ncc(Br)c1CN  0.892
69. C[C@H]1[C@H]([Si](C)(C)F)[C@@H](CCO)O[C@]12C(=O)N(Cc1cccc(N3C(=O)COc4ccccc43)c1)c1ccccc12  0.89
70. O=C1N(CCS(=O)(=O)c2ccccc2)Cc2ccccc2C[C@@]12COC(c1ccc(OCCCO)cc1)=N2  0.88
71. CC(C)(C)OC(=O)CC[C@]1(C(=O)NC[C@@H](O)CO)COC(c2ccc(OCCCO)cc2)=N1  0.874
72. CCn1cc(C(=O)O)c(=O)c2ccc(C)nc21  0.869
73. O=C(C[C@H]1C=C[C@@H](NC(=O)Cc2ccccn2)[C@@H](CO)O1)NCCc1ccncc1  0.861
74. C[C@@H]1CN([C@@H](C)CO)S(=O)(=O)c2ccc(C#CC3(O)CCCC3)cc2O[C@H]1CN(C)C(=O)c1ccncc1  0.851
75. CN(C)CCOC(c1ccc(Cl)cc1)c1ccccn1.O=C(O)/C=C\C(=O)O (stereo not drawn)  0.849
76. COc1ccc(S(=O)(=O)N2C[C@H](O)COC[C@@H]3O[C@H](CC(=O)NCCN4CCCCC4)CC[C@H]32)cc1  0.838
77. O=C(/C=C/c1ccccc1)C1CC1  0.754
78. Cc1c2oc3c(C)ccc(C(=O)OC(C)C4NC(=O)C(C(C)C)N(C)C(=O)CN(C)C(=O)C5CCCN5C(=O)C(C(C)C)NC4=O)c3nc-2c(C(=O)OC(C)C2NC(=O)C(C(C)C)N(C)C(=O)CN(C)C(=O)C3CCCN3C(=O)C(C(C)C)NC2=O)c(N)c1=O (stereo not drawn)  0.172
